# According to patent US8940863B2, “Selective anticancer chimeric peptides which bind neuropilin receptor” (Stella Pharma Corporation, priority 2008, dated 2015):
# Tests used:
# [1] = test system: k-ras mutated cancer cell lines (MDA-MB-231, HCT116, SW837 and DLD-1); experiment: Cytotoxicity in k-ras mutated cancer cell lines; details: 72 hours; for cytotoxic activity in k-ras mutated cancer cell lines: 0 to 20 μM
# [2] = test system: k-ras wild-type (WT) cancer cell lines (H322, BT-20 and BxPC-3); experiment: Cytotoxicity of TKI or EB-lytic in k-ras wild-type cancer cell lines; details: 72 hours; for cytotoxic activity in k-ras WT cancer cell lines: H322, BT-20 and BxPC-3, 0 to 20 μM
smiles,measurement,setting,value
COc1cc2ncnc(Nc3cccc(Br)c3)c2cc1OC [PD153035],cytotoxic activity in k-ras mutated cancer cell lines,[1],resistant
same,cytotoxic activity in k-ras WT cancer cell lines,[2],insufficient
C#Cc1cccc(Nc2ncnc3cc(OCCOC)c(OCCOC)cc23)c1 [erlotinib],cytotoxic activity in k-ras mutated cancer cell lines,[1],resistant
same,sensitivity of k-ras mutated cancer cell lines,"[1]; erlotinib 0 to 80 μM, anti-EGFR antibody 0 to 20 μg/ml",resistant
same,cytotoxic activity in k-ras WT cancer cell lines,[2],insufficient
same,sensitivity of k-ras WT cancer cell lines,"[2]; H322 and BT-20, erlotinib 0 to 80 μM, anti-EGFR antibody 0 to 20 μg/ml",sensitive
COc1cc2ncnc(Nc3ccc(F)c(Cl)c3)c2cc1OCCCN1CCOCC1 [gefitinib],cytotoxic activity in k-ras mutated cancer cell lines,[1],resistant
same,cytotoxic activity in k-ras WT cancer cell lines,[2],insufficient
